We go through 1 substance from publication PMC8682755.

This experiment deals with recombinant CMG helicase (Cdc45, Mcm2-7, GINS) (not stated | X. laevis) (UniProt Q9YHZ6).

With “recombinant Xenopus laevis CRL2^Lrr1 (Cul2, Rbx1, Elongin B, Elongin C, Lrr1) (complex)”, the Mcm7 polyubiquitylation in a reconstituted system with purified proteins (neddylated rCRL2^Lrr1 30 nM, rCMG 15 nM, E1, Ube2D2, Ube2R1, ubiquitin, ATP; western blot) (ubiquitin moieties) was below 7.
